The series concerns NADH. The series is described as follows: purified protein, by the assay type. As to conditions: other: reduction reaction.

Take RE-ADH (Rhodococcus erythropolis): the Km stood at 25 µM.

For the origin of these results see patent US7341859B2, “ADH from Rhodococcus erythropolis” (Degussa AG, priority 2002, dated 2008).
